Target: Kappa-type opioid receptor (Homo sapiens, UniProt P41145)
Test: Displacement of [3H]U-69,593 from human KOR expressed in CHO cells
Assay type: cell-based

By UniProt entry, the sequences of proteins in these tests, tags left out. Where a name states a change or a piece, a line headed by the entry shows the natural chain unless it says otherwise.
UniProt P41145: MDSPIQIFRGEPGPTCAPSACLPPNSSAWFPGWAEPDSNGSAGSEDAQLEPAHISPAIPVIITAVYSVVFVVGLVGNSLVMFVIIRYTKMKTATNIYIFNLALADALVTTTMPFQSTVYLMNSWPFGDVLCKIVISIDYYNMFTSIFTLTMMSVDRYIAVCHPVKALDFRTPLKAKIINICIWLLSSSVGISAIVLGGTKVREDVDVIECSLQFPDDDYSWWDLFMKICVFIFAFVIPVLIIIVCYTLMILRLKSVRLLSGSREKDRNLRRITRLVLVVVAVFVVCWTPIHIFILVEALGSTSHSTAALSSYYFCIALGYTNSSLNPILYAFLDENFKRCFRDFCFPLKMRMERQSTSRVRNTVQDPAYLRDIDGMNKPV

SMILES: Oc1ccc2c3c1O[C@H]1c4[nH]c5ccccc5c4C[C@@]4(O)[C@@H](C2)N(CC2CC2)CC[C@]314 [NALTRINDOLE]
- Ki: 14.7 nM

From ChEMBL document CHEMBL3596130 (Bioorg Med Chem Lett, 2015)
